Literature values as cited in US20070059382A1 (published 2007).

Settings: in vivo; cited from earlier work

SMILES: [B] [boron]
- fraction of consumed boron absorbed: about 90%
